One data set concerns the target Y2 receptor subtype (Homo sapiens, UniProt P49146). The following applies: read-out: IC50 against Y2 receptor subtype; cited from earlier work.
Another data set deals with hGalR1 (Homo sapiens, UniProt P47211). As to the kind of experiment: Radioligand binding study, hGalR1 (MDS-PS). Here is the method:
(§1) Affinity of NAX 5055 for human hGalR1 and hGalR2 was confirmed in a preliminary radioligand binding study that was conducted by MDS-PS contract screening company (report#1077561, reference: MDSPS 231510 and 231600). In this study, hGalR1 was expressed in HEK-293 cells, whereas hGalR2 was expressed in CHO-K1 cells and human [^125I]galanin was used as the radioligand.

Amino acid sequences for entries named in this document (tags omitted). A change or cut given only in a name is not applied to a line headed by its entry.
UniProt P49146, whole entry: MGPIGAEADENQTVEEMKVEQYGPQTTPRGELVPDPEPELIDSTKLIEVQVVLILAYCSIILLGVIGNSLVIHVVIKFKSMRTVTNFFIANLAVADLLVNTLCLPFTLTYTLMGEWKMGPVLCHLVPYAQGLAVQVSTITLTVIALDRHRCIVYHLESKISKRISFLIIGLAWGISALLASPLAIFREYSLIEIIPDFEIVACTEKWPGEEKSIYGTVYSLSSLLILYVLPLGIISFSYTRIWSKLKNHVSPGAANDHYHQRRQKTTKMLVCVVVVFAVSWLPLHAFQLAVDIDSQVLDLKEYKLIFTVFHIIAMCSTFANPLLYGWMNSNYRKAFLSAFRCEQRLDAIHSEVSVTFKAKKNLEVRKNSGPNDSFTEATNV
UniProt P47211: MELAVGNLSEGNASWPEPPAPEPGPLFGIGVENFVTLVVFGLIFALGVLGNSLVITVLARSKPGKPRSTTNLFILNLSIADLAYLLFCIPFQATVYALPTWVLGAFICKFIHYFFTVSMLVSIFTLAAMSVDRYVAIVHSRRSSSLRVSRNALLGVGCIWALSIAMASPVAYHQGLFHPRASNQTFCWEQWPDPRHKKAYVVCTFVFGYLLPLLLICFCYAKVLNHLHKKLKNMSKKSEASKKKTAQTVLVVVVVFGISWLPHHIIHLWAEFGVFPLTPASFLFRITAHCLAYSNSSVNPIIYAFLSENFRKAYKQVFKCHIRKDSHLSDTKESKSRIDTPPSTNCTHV

Another data set concerns the target T1, hGalR2 (Homo sapiens, UniProt O43603).
T1 sequence (O43603 1-387): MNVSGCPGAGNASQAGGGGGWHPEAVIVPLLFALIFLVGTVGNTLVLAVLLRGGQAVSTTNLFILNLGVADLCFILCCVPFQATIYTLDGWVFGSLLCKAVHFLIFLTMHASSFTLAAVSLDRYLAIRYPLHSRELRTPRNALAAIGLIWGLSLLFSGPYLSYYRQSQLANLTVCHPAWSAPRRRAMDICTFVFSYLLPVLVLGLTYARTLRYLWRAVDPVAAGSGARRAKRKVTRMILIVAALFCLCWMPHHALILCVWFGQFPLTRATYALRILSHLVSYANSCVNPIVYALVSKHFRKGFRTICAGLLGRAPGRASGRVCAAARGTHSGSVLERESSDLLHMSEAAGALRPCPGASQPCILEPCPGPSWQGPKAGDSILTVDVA
As to the kind of experiment: Radioligand binding study, hGalR2 (MDS-PS). Here is the method: as §1

Data set [1] in a line: Toxicity (motor impairment) noted in the SAR screen. It counts as in vivo, mice. The following applies: 4 mg/kg, i.p. The text has this: Minimal toxicity will be identified in mice by the rotarod procedure (Dunham and Miya, 1957). When a mouse is placed on a 1-inch knurled rod that rotates at a speed of 6 r.p.m., the animal can maintain its equilibrium for long periods of time. The animal is considered toxic if it falls off this rotating rod three times during a 1-minute period.
Structure-Activity Relationships of the NAX 5055 analog. SAR studies have been carried out in an effort to better understand structural determinants of its activity following systemic administration. […] Presence of the Lys-palm residue was insufficient to produce any observable anticonvulsant activity.

Like-named read-outs stand apart in the source and are kept apart here.

For “Ac-[Ahx5-24,K4(99mTc(CO)3-PADA),A26]-NPY”, on Y2 receptor subtype, the IC50 is 1 nM.
For “Sar-Trp-Thr-Leu-Asn-Ser-Ala-Gly-Tyr-Leu-Leu-Gly-Pro-Lys-Lys-(Lys-palm)-Lys-NH2 [NAX 5055]”, the Ki on hGalR1 (Table 2, own value for NAX 5055 (cf. b414), read-out: affinity toward galanin receptors, GalR1) is about 9 nM; on hGalR1 (hGalR1 expressed in HEK-293 cells, human [125I]galanin radioligand, preliminary study, read-out: estimated Ki for hGalR1), 9 nM; at hGalR2 (Table 2, own value for NAX 5055 (cf. b414), read-out: affinity toward galanin receptors, GalR2), about 6 nM; at hGalR2 (hGalR2 expressed in CHO-K1 cells, human [125I]galanin radioligand, preliminary study, read-out: estimated Ki for hGalR2) it was 6 nM. Besides, the Kd at hGalR1 (Table 18, Analog 5055, own value, read-out: Affinity, KD hGalR1) was about 9 nM; on hGalR2 (Table 18, Analog 5055, own value, read-out: Affinity, KD hGalR2), about 6 nM. In data set [1], the “toxicity (motor impairment)” value was “not observed”.

(Values after US20180340012A1, “METHODS AND CO[…] TO IMPROVING PROPERTIES OF PHARMACOLOGICAL AGENTS TARGETING NERVOUS SYSTEM” (University of Utah Research Foundation, priority 2006, published 2018).)
